How the values were obtained:
[1] = target: His-Tagged hOGA (human O-GlcNAcase) (Homo sapiens, UniProt O60502); settings: read-out: OGA enzyme inhibition (IC50); 20 nM His-Tagged hOGA, 10 μM FL-GlcNAc, pH 6.5, 60 min room temperature; tested form: TFA
O-GlcNAcase = O-GlcNAcase (UniProt Q8VIJ5); settings: read-out: OGA cellular inhibition (EC50); cells expressing endogenous O-GlcNAcase (such as rat B35, rat PC-12, human SH-SY5Y), approximately 16 hours treatment; tested form: TFA

Protein sequences, listed by entry. Tags and fused reporters are not part of them.
UniProt O60502, whole entry: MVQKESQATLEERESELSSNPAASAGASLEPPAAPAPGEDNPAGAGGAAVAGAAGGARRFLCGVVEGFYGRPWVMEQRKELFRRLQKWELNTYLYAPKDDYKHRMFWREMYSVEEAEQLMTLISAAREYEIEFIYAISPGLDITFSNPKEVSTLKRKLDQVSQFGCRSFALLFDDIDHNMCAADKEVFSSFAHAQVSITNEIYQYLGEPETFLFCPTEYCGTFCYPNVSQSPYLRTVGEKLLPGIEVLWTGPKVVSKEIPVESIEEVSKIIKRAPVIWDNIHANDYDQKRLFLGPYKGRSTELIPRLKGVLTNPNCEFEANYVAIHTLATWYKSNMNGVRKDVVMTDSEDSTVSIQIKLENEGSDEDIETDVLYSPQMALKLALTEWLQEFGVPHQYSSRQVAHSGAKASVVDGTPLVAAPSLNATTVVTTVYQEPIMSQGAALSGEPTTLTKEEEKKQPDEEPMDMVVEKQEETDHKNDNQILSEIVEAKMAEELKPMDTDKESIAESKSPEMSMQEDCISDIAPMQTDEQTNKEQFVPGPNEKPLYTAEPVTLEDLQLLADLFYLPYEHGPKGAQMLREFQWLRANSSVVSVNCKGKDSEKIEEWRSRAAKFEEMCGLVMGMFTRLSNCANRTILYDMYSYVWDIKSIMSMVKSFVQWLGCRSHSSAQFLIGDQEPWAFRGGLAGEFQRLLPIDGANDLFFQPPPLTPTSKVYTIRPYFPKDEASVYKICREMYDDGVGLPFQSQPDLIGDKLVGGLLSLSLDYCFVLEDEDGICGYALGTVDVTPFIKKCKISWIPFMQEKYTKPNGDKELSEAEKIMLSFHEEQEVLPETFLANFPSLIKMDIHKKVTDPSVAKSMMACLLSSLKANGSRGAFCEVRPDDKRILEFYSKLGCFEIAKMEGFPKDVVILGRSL
UniProt Q8VIJ5, whole entry: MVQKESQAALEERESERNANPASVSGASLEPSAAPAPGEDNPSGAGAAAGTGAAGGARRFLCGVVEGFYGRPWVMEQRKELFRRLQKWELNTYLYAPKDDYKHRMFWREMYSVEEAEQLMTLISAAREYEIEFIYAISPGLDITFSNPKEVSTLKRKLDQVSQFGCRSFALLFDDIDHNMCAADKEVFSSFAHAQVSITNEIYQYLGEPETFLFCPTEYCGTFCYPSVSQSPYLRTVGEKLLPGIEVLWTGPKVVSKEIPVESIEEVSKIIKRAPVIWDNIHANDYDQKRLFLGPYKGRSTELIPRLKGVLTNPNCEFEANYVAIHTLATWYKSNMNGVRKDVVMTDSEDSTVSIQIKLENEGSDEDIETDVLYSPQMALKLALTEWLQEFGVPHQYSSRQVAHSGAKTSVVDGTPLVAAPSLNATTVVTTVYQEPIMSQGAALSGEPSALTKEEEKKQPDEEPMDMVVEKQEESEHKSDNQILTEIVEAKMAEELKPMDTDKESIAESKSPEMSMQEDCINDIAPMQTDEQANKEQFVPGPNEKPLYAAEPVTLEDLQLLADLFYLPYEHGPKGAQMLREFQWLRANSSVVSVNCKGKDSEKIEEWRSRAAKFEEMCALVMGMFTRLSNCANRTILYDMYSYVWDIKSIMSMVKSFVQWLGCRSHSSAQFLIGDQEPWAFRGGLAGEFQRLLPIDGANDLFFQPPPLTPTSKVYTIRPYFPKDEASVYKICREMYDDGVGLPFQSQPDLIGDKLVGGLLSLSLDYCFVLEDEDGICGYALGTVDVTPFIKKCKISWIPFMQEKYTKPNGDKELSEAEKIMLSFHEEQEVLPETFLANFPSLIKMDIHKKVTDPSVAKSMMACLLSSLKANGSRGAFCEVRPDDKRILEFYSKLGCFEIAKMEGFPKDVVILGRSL

Question: For `CCNC1=N[C@@H]2[C@@H](O)[C@H](O)[C@@H](Cn3cc(Cn4nc(C)c(C)c4C)nn3)O[C@@H]2S1`, which IC50 [1] is on record?
Answer: Its IC50 is under 100 nM.

Question: What about the EC50 (O-GlcNAcase) of the same molecule?
Answer: Its EC50 is over 1000 nM.

Reference: US8884023B2, “Pyrano [3,2-D][1,3]thiazole as glycosidase inhibitors” (priority 2011, dated 2014)
